# scFv variants of Ab-95 (light chain) against a SARS-CoV-2 spike peptide

Data: MIT Lincoln Laboratory AlphaSeq set, Engelhart et al. 2022, doi:10.1038/s41597-022-01779-4, as distributed in FLAb.

All variants were tested on one target, the spike HR2 peptide PDVDLGDISGINAS (SARS-CoV-2).

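The starting antibody came from a phage panning campaign against this peptide. Library AAYL52 holds single substitutions and randomly drawn double and triple substitutions in the CDRs. In AlphaSeq, yeast of one mating type display the scFv and yeast of the other type display the target. After mating in shaken culture at 30 °C for 16 h, diploids were selected and their barcode pairs sequenced. Read counts were normalised to the haploid input and turned into Kd by a linear fit to BCL2-family pairs of known affinity, for each replicate. There are three technical replicates.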

The variants keep the heavy chain, the linker and the frameworks of Ab-95 (scFv order VH, a 15-residue (Gly4Ser)3 linker, VL).
VH: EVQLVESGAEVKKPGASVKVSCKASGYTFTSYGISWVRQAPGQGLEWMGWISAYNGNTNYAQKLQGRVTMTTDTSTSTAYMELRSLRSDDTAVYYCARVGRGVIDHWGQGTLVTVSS
VL: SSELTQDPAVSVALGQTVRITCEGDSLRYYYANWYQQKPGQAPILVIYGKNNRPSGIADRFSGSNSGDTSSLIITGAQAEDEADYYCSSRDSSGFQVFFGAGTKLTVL

Variants are written as CDR1, CDR2 and CDR3 of the light chain (limits as in the source). Parent: EGDSLRYYYAN, GKNNRPS, SSRDSSGFQVF. This list gathers variants with a substitution at G49 (VL, numbered from residue 1). Numbers give log10(Kd / nM), so 0 is 1 nM and 3 is 1 µM. Smaller is tighter. The mean shown is taken over the replicates in which the pair was detected. A pair that was not seen in that replicate is written "nd"; this usually means weak binding, but a binder can also be missed. The list is sorted by this average, lowest first, undetected variants last. Three control strains display no target. For library AAYL52, 28% of the pairings with them gave a signal, with a median of 3.91 and one signal in twenty below 2.90, so weak values seen in few replicates may be background.

Variant EGDSLRYYYNN / HKNNRPS / SSNDSSGFQVF gave 3.37, nd, nd. Variant EGDSLRYYYAN / KKNNRPS / SSRDSSGFWVF gave 3.53, 3.40, nd (mean 3.46). For EGDSLWYYYAN / PKNNRPS / SSRDSSGFQVF, the assay gave 3.40, 3.47, 3.95 (mean 3.61). Variant EGDSLRYYYAN / AKNNRPS / SSRISSWFQVF showed 3.54, 3.97, 3.38 (mean 3.63). For EGDSLSYYYAN / KKNNRWS / SSRDSSGFQVF, the assay gave 3.65, nd, nd.

For EGDSLNYYYAN / WKNNRPS / SSRDSSFFQVF, the assay gave 4.57, 2.92, nd (mean 3.75). With EGDSARYYYAN / NKNNRPS / SSRDSSGFQVF the result was nd, 3.32, 4.28 (mean 3.80). Variant EGDSLRHYYAN / EKNNRPS / SSGDSSGFQVF gave nd, 3.69, 3.99 (mean 3.84). Variant EGDSLRYYYAN / MKNHRPY / SSRDSSGFQVF showed 4.03, nd, nd. With CGDSLRYYIAN / RKNNRPS / SSRDSSGFQVF the result was 4.08, nd, nd.

Variant EGDSLRYYLAN / EKNNRPS / SSRDSSGFFVF showed nd, 4.57, 3.65 (mean 4.11). For YGDSLRYYYAN / PKNNRPS / SSRYSSGFQVF, the assay gave 4.27, 4.04, nd (mean 4.15). Variant EGDSLRYYYAV / KKNNRPS / SSRDHSGFQVF showed 4.04, 4.31, nd (mean 4.17). With EGDSLRYYYAN / IKNNHPS / SSRDSSGKQVF the result was 4.42, nd, nd. Variant EGDSLRYYYAN / HKNNRPS / SSRDSSGFQRY gave nd, nd, 4.50.

Variant EGDSLRYYSAK / RKNNRPS / SSRDSSGFQVF gave nd, 4.93, 4.10 (mean 4.52). Variant EGCSLRYYYAN / WKNNRPS / SSRRSSGFQVF showed 5.59, 4.20, 4.06 (mean 4.61). With EGDSLRAYYAN / YKNNRPS / SSRDSSNFQVF the result was 3.74, 5.63, 4.56 (mean 4.64). With EGDSLRYYYAN / LKNNRPV / SSRDSSGFQVF the result was 5.50, nd, 3.92 (mean 4.71). Variant EGDSLRIYYAN / FKNNRPS / SSRDSSGGQVF showed 4.11, 5.62, nd (mean 4.86).

For EGDSLRYYYAN / YKNNRAS / SSRDSSGFQVF, the assay gave nd, 5.32, nd. For EGDSLRYYYAN / PKNNRPS / SSRDHHGFQVF, the assay gave nd, 5.35, nd. Variant EGDSLRYYYAN / PKENRHS / SSRDSSGFQVF gave nd, nd, nd. Variant EGDSLRYYYAN / VKNNRPS / SSRDSSGYQVF showed nd, nd, nd. For EGDSLRYYYAN / LKNNRPS / SSRLSSGFQVF, the assay gave nd, nd, nd.

Variant EGDSLRYYYAN / TKFNRPM / SSRDSSGFQVF gave nd, nd, nd. With EGDSLRYYYAN / HKNERPS / SSPDSSGFQVF the result was nd, nd, nd. Variant EGDSLRYYYAN / FKNNRPS / SSRDSSMFAVF showed nd, nd, nd. For EGDSLRYYYAN / KKPNRPS / YSRDSSGFQVF, the assay gave nd, nd, nd. Variant EGDSLRYYAAN / WKQNRPS / SSRDSSGFQVF showed nd, nd, nd.

Variant EGDSLRNYYAN / FKNNRPS / SSRDSEGFQVF gave nd, nd, nd. For EGDSVRYYYAN / PKNNRPS / SSRDSSTFQVF, the assay gave nd, nd, nd. Variant EGDSLRYYWGN / NKNNRPS / SSRDSSGFQVF gave nd, nd, nd.

Picked from the list: the 4 lowest averages where every replicate gave a value.

{"CDR-L1": "EGDSLWYYYAN", "CDR-L2": "PKNNRPS", "CDR-L3": "SSRDSSGFQVF", "log10 Kd (nM) by replicate": "3.40, 3.47, 3.95", "log10 Kd (nM), mean": "3.61"}
{"CDR-L1": "EGDSLRYYYAN", "CDR-L2": "AKNNRPS", "CDR-L3": "SSRISSWFQVF", "log10 Kd (nM) by replicate": "3.54, 3.97, 3.38", "log10 Kd (nM), mean": "3.63"}
{"CDR-L1": "EGCSLRYYYAN", "CDR-L2": "WKNNRPS", "CDR-L3": "SSRRSSGFQVF", "log10 Kd (nM) by replicate": "5.59, 4.20, 4.06", "log10 Kd (nM), mean": "4.61"}
{"CDR-L1": "EGDSLRAYYAN", "CDR-L2": "YKNNRPS", "CDR-L3": "SSRDSSNFQVF", "log10 Kd (nM) by replicate": "3.74, 5.63, 4.56", "log10 Kd (nM), mean": "4.64"}